Data reported in publication PMC6720714, “Structural and Biological Characterizations of Novel High-Affinity Fluorescent Probes with Overlapped and Distinctive Binding Regions on CXCR4” (Molecules, 2019).

Amino acid sequences for entries named in this document (tags omitted).
UniProt P61073, whole entry: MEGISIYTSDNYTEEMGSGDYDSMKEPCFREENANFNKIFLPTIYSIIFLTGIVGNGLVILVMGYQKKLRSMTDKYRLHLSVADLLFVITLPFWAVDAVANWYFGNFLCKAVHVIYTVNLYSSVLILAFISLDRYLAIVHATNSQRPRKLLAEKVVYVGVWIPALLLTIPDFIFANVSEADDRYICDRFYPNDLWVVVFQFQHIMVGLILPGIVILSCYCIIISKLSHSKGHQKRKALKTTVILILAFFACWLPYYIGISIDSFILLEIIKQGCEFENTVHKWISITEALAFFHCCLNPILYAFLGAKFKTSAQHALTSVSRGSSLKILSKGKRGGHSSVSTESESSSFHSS

Experiments:
Set-up in all cases: expressed in transfected cells; host or cells: CHO (CHO-CXCR4, G418-selected)
[1] = biological target: T1, CXCR4 (Homo sapiens, UniProt P61073); test: FITC-CVX15-based competitive binding assay on CHO-CXCR4 cells; details: competition with 400 nM FITC-CVX15, CHO-CXCR4 cells, 4 °C, 50 min
[2] = biological target: T1, CXCR4; test: 12G5 antibody-based competitive binding assay on CHO-CXCR4 cells; details: competition with antibody 12G5 at 250 ng/mL, 4 °C, read-out: IC50, 12G5 Ab
Method: (§1) Gradient concentrations of CXCR4 ligands were prepared with 1% BSA/PBS. CHO-CXCR4 cells were cultured and diluted into 5 × 10^5 cells/mL in 0.5% BSA/PBS. One hundred microliters of above cell solutions were added to each well of a 96-well plate and washed twice with 0.5% BSA/PBS. Cells were then incubated with 100 μL primary 12G5 Ab (1:2000, mouse anti-human CD184 antibody, BD Biosciences, CA, USA) in 0.5% BSA/PBS except for negative control group and gradient concentrations of CXCR4 ligands for 40 min on a shaker at 4 °C.

[3] = biological target: T1, CXCR4; test: Three parallel CXCR4 competitive binding assays (FITC-CVX15, FITC-DV1, 12G5) compared; details: summary over the three parallel assays; read-out: IC50 values (binding affinity to CXCR4)
Method: as §1

For `NCCCCN(Cc1nc2ccccc2[nH]1)[C@H]1CCCc2cccnc21` [AMD070], the IC50 [1] was 14.7 nM, the IC50 [2] was 12.2 nM and the IC50 [3] was less than 50 nM.
